Experimental data published in patent publication US4994448A, “Condensed quinolinium and isoquinolinium derivatives” (Egis Gyogyszergyar, priority 1987, dated 1991).

System: writhing (acetic acid)
Test: Analgesic effect, acetic acid writhing test on mice
Details: mouse, in vivo, po
Description: Method: acetic acid "writhing effect" on mice
To mice weighing 20-25 g. a 0.75% acetic acid solution is administered intraperitoneally in a volume of 20 ml./kg. According to the method of Neubold the characteristic writhing reactions are counted for each animal between the 5th and 10th minute and the total writhing number obtained for this 5 minutes' period is expressed as the percentage of the control group. The test compound is administered orally, the test is carried out by using a pre-treatment period of 60 minutes and 10 animals are used for each dose.

CC(=O)Nc1ccc(O)cc1 [Paracetamol, reference compound]
Therapeutical index (writhing test): 2.8
